# Test results: patent publication US20050148505A1, “Genes and agents to regulate follicular development, ovulation cycle and steriodogenesis” (priority 2003, published 2005)
# Tested on: CTBP mRNA
# Assay: In situ hybridization of ovaries of immature rats primed with PMSG and hCG
# Type: in vivo, rat
# Conditions: PMSG-primed rats additionally primed with hCG for 6 h; high level persisted in small follicles
# Protocol: FIG. 4. Follicular stage dependent expression of CTBP mRNA. Immature 22-23 day old rats were primed with a single injection of PMSG for 0 (A), 3 (B), 6 (C), 24 (D) and 48 (E) h, followed by priming with an hCG injection for 1 (F) and 6 h (G, H). The ovaries were excised, sectioned and hybridized with the CTBP antisense probe (A-G) or inhibin a antisense probe (H). In addition to the dark field autoradiographs in the left panel, the corresponding bright field images of hematoxylin staining are aligned in the right panels. Arrows and arrowheads indicate preantral and early antral follicles, respectively. PO, preovulatory follicle; AtF, atretic follicle. 40× magnification.
# All animals were handled according to the guidelines for care and use of animals set by the National Institutes of Health and the University of Kentucky Institutional Animal Care and Use Committee. Eighteen to twenty-one day old Sprague-Dawley female pups with nursing mothers were purchased from Harlan Breeding Company (Indianapolis, Ind.) and housed in a photoperiod of 14 h light/10 h darkness with light on at 0500 h. For in situ hybridization analysis, rats were injected s.c. with 15 IU PMSG in 0.1 ml PBS at 22 or 23 days of age. Some of the rats primed with PMSG for 48 h were additionally injected i.p. with 10 IU hCG. […]
substance,measurement,value
hCG: hCG purchased from the National Hormone and Peptide Program; used to prime rats after PMSG,"CTBP signal in large antral follicles, particularly preovulatory follicles",completely abolished
